Assay results published in ChEMBL document CHEMBL1139380, “Edaravone derivatives containing NO-donor functions” (J Med Chem, 2009).
The source made the active and inactive calls. The rule behind the calls is not given here.

Test system: Liver microsomes
Experiment: Antioxidant activity against […]/ascorbate-induced lipid peroxidation in Wistar rat liver microsomal membrane at 05 to 15 uM by TBARS assay
Format: functional
Conditions: Microsome

COCCCCC(CO[N+](=O)[O-])O[N+](=O)[O-] (stereo unspecified)
Activity: inactive
